Reference: patent US6913892 (H LUNDBECK A S, dated 2005)
Blank lines part the entries; values can stand above or below the binder they belong to.

Chains of the proteins cited; added tags and fusions are not shown. Lines headed by an entry give the natural chain unless they say otherwise; changes in a name come on top.
UniProt P0DQD5: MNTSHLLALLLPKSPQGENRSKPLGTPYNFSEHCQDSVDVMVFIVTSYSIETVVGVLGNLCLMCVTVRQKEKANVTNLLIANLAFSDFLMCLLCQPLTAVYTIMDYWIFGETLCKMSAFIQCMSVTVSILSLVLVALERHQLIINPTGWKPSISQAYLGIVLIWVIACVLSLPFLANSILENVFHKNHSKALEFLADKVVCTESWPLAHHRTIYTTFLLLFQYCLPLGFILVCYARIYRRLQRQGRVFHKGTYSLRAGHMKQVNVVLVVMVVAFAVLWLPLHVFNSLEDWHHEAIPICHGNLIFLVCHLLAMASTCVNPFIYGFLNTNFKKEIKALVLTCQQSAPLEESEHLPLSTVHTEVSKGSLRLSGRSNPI
UniProt Q63447, whole entry R262P: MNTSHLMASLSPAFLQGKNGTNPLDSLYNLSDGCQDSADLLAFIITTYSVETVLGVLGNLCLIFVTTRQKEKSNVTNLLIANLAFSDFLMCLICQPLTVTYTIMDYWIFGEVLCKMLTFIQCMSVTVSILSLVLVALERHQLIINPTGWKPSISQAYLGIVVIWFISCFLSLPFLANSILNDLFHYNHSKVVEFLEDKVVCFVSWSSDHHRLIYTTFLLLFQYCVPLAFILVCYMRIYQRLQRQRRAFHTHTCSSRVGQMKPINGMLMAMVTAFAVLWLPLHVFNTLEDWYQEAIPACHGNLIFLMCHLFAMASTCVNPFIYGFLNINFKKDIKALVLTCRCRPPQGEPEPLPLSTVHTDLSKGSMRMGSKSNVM
UniProt P49146, whole entry: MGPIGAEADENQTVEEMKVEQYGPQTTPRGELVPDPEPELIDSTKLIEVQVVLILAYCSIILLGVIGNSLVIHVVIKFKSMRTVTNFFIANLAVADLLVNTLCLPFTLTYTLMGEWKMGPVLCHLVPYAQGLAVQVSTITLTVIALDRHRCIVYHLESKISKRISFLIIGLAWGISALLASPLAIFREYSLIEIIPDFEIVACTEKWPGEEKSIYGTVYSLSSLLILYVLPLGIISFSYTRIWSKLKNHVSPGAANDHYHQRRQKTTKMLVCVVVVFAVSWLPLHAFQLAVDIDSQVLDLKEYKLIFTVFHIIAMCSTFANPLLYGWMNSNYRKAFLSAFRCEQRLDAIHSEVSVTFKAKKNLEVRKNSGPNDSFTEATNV
UniProt P25929, whole entry: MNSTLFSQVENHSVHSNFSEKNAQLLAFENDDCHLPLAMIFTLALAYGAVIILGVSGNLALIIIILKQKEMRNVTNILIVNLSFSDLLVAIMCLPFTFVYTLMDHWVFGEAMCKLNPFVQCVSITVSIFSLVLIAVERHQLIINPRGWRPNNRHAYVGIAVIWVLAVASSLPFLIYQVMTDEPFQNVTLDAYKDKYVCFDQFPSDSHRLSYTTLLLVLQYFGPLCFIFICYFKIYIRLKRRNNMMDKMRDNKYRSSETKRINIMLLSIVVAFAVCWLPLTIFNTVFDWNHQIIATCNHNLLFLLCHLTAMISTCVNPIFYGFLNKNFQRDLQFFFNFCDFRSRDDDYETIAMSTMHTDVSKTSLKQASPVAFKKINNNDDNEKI

Assays:
human Y4 receptor [1] = biological target: T1, human Y4 receptor (human, UniProt P0DQD5 1-375); assay: 125I-PYY displacement, COS-7 membranes (as in Table 3)
T1 construct: also called hp25a; hp25a receptor
Protocol: (§1) Radioligand Binding to Membrane Suspensions: Membrane suspensions were diluted in binding buffer supplemented with 0.1% bovine serum albumin and 0.1% bacitracin to yield an optimal membrane protein concentration: ~0.02 mg/ml for human Y1 receptors, ~0.015 mg/ml for hp25a receptors, and ~0.25 mg/ml for SK-N-Be(2). […] Incubations were terminated by filtration over Whatman GF/C filters (pre-coated with 0.5% polyethyleneimine and air-dried before use). […] Binding data were analyzed using nonlinear regression and statistical techniques available in the GraphPAD InPlot package (San Diego, Calif.). […] Whatman GF/C filters were from Brandel (Gaithersburg, Md.). Bio-Rad Reagent was from Bio-Rad (Hercules, Calif.). Bovine serum albumin and bacitracin were from Sigma (St. Louis, Mo.). All other materials were reagent grade.

human Y4 receptor [2] = biological target: T1, human Y4 receptor; assay: 125I-PYY displacement, COS-7 membranes
Protocol: as §1

human Y4 receptor [3] = biological target: T1, human Y4 receptor; assay: cell-based or functional assay
human Y4 receptor [4] = biological target: T1, human Y4 receptor; assay: 125I-PYY displacement, COS-7 membranes; remark: listed apart in the source
rat Y4 receptor = biological target: T2, rat Y4 receptor (rat, UniProt Q63447 1-375); assay: 125I-PYY displacement, COS-7 membranes
T2 construct: Full-length receptor (375 aa) transiently expressed in COS-7 cells; membranes used; also called rs16b; rat Y4 homolog

human Y2 receptor = biological target: T3, human Y2 receptor (human, UniProt P49146 1-381); assay: 125I-PYY displacement, COS-7 membranes
T3 construct: whole, on cells; Transiently expressed in COS-7 cells; membranes used; also called cloned Y2 receptor
Protocol: as §1

human Y1 receptor = biological target: T4, human Y1 receptor (human, UniProt P25929 1-384); assay: 125I-PYY displacement, COS-7 membranes
T4 construct: Transiently expressed in COS-7 cells; membranes used; also called cloned human Y1 receptor (Larhammar et al., 1992)
Protocol: as §1

Ki (human Y4 receptor [1]): 0.87 nM
Ki (human Y4 receptor [2]): 0.87 nM
B1: human peptide YY (peptide)
peptide: not shown
modifications: C-terminal amide
notes: mature; also called human PYY; PYY, human

Ki (human Y4 receptor [1]): 1.1 nM
EC50, inhibition of forskolin-stimulated cAMP accumulation, LM(tk-) cells (human Y4 receptor [3]): 68 nM
Ki (human Y4 receptor [2]): 1.1 nM
Ki (human Y4 receptor [4]): 1.1 nM
Ki (rat Y4 receptor): 1.8 nM
B2: porcine neuropeptide Y (peptide)
peptide: not shown
modifications: C-terminal amide
notes: mature; also called porcine NPY; NPY, porcine

Ki (human Y2 receptor): 75000 nM
Ki (human Y1 receptor): 12000 nM
B3: Phe-Met-Arg-Phe-Amide (peptide)
peptide: FMRF
modifications: C-terminal amide
notes: Tetrapeptide invertebrate neurotransmitter; also called FMRF-amide; FMRFamide

Ki (human Y1 receptor): 15000 nM
Ki (human Y4 receptor [2]): 750 nM
B4: Phe-Leu-Arg-Phe-amide (peptide)
peptide: FLRF
modifications: C-terminal amide
notes: Derivative of FMRFamide; also called FLRFamide; FLRF-amide
